Source: paper PMC7723054
The list shows a part of the results.

What was measured:
Experiment in all cases: FOREST: bead pull-down of RNA structure library v1, barcode microarray; U1A/LIN28A: 20 mM HEPES pH 7.5, 80 mM KCl, 20 mM NaCl, 10% glycerol, 2 mM DTT, 0.1 ug/uL BSA, 4 C; BG4/CIRBP/DHX36: 10 mM Tris-HCl pH 7.5, 100 mM KCl (or LiCl),; high values mean tight binding
[1] = biological target: T1, LIN28A (human?, UniProt Q9H9Z2 1-209)
T1 sequence: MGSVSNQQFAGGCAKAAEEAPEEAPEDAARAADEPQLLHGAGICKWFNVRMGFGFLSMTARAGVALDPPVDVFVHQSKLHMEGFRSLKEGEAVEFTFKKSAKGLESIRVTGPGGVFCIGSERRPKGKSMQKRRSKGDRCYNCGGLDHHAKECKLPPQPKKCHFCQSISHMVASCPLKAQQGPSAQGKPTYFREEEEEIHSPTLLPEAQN

[2] = biological target: T2, CIRBP (Homo sapiens, UniProt Q14011 1-172)
T2 sequence: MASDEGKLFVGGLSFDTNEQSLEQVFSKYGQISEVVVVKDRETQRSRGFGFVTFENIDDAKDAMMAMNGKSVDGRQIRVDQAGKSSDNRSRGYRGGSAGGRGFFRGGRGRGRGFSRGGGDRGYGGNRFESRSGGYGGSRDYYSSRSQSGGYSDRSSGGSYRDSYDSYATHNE

[3] = biological target: T3, DHX36 (Homo sapiens, UniProt Q9H2U1 1-1008)
T3 sequence: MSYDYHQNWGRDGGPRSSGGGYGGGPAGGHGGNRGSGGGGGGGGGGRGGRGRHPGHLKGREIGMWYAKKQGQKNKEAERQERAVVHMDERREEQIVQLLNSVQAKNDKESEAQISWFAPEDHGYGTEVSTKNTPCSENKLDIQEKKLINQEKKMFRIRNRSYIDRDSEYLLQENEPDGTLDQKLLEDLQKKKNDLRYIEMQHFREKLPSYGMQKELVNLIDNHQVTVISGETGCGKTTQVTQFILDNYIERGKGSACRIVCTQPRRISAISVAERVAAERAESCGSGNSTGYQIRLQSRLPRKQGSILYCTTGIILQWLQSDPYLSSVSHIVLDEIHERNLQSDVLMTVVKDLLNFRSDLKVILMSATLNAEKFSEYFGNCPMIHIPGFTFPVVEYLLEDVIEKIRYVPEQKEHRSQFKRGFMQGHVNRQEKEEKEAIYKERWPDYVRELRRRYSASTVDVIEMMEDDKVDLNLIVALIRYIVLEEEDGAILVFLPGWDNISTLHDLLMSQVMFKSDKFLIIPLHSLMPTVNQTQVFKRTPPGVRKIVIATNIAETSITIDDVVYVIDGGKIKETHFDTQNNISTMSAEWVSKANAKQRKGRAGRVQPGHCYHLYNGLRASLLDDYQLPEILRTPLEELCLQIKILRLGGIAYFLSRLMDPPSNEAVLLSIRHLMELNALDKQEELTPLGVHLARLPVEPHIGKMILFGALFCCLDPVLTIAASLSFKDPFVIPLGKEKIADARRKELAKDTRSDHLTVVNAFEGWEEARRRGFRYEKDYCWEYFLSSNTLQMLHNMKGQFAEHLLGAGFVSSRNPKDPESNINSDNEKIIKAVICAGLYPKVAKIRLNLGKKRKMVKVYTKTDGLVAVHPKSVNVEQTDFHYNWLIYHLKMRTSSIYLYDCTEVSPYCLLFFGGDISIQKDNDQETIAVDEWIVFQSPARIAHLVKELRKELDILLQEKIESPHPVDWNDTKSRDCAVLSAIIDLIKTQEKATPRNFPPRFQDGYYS

B1: hsa-mir-4729 (structured_RNA)
RNA: GGGAAGCGAUAAUAGAACUGUCAUUACGGGUGUACGAAGUUUCAGCGCUAACUGUGACCUUAGCGCUGAAGCUUCGUGCAC
[1]
  binding signal: -1.19 z-score
[2]
  binding signal: 0.144 z-score
[3]
  binding signal: -0.917 z-score

B2: hsa-mir-9-3 (structured_RNA)
RNA: GGGAUACCAUGGAAAAGCCCAUUCCAAGGGUGUACGAAGUUUCAGCGUAUGAGUGCCACAGAGCCGUCAUAAGCUGAAGCUUCGUGCAC
[1]
  binding signal: -1.19 z-score
[2]
  binding signal: -1.68 z-score
[3]
  binding signal: -0.34 z-score

B3: hsa-mir-4521 (structured_RNA)
RNA: GGGAAAACAGGCCCACCUGGGUCAGAAUGGUGUACGAAGUUUCAGCUCAGUUUUGUAGCAUCAAAACUGCUGAAGCUUCGUGCAC
[1]
  binding signal: -1.2 z-score
[2]
  binding signal: -0.884 z-score
[3]
  binding signal: -0.746 z-score

B4: hsa-mir-3610 (structured_RNA)
RNA: GGGACCGCAAGUACAGGGAGAUUUCGAUGGUGUACGAAGUUUCAGCGAGUGAAUCGCUGAAGCUUCGUGCAC
[1]
  binding signal: -1.2 z-score
[2]
  binding signal: 0.866 z-score
[3]
  binding signal: -0.786 z-score

B5: hsa-mir-5692c-1 (structured_RNA)
RNA: GGGAACGGGAUGGUGUAAUGCACGUUGCGGUGUACGAAGUUUCAGCUAAGAGUAAUAGCUCUCUAGGUUAUUAUGAAUAGCUGAAGCUUCGUGCAC
[1]
  binding signal: -1.22 z-score
[2]
  binding signal: 0.135 z-score
[3]
  binding signal: 0.495 z-score

B6: hsa-mir-599 (structured_RNA)
RNA: GGGAGUGUUCACCGUAGCUCACCCCAGUGGUGUACGAAGUUUCAGCGGACAGGGAUUCUUUUCACUGUUGCUGAAGCUUCGUGCAC
[1]
  binding signal: -1.22 z-score
[2]
  binding signal: -1.15 z-score
[3]
  binding signal: -0.858 z-score

B7: hsa-mir-5580 (structured_RNA)
RNA: GGGCCGAAUUACCAGACAAGGACACGCAGGUGUACGAAGUUUCAGCUGUGUGCUGAGAAAAUUCACACAGCUGAAGCUUCGUGCAC
[1]
  binding signal: -1.22 z-score
[2]
  binding signal: -1.23 z-score
[3]
  binding signal: -0.351 z-score

B8: hsa-mir-412 (structured_RNA)
RNA: GGGAAAAGACUGCAUGCCUGACCGAAGGGGUGUACGAAGUUUCAGCAAGUAAUUGUUUCUAAUGUACUGCUGAAGCUUCGUGCAC
[1]
  binding signal: -1.23 z-score
[2]
  binding signal: 0.193 z-score
[3]
  binding signal: -0.457 z-score

B9: hsa-mir-660 (structured_RNA)
RNA: GGGCAGAGCCUACCUGACUCCAAUGGUAGGUGUACGAAGUUUCAGCAGUUGUGAAUUCUCAAAACACCUGCUGAAGCUUCGUGCAC
[1]
  binding signal: -1.23 z-score
[2]
  binding signal: -1.62 z-score
[3]
  binding signal: -0.641 z-score

B10: hsa-mir-4255 (structured_RNA)
RNA: GGGAACUUAAACUUCAGGAAAGCGCGUUGGUGUACGAAGUUUCAGCUGGAGUCAGUAUUGGUCUGGCCAGCUGAAGCUUCGUGCAC
[1]
  binding signal: -1.23 z-score
[2]
  binding signal: 0.0342 z-score
[3]
  binding signal: -0.547 z-score

B11: hsa-mir-7706 (structured_RNA)
RNA: GGGAAAAUUCAGAGCACCGACAGAACCCGGUGUACGAAGUUUCAGCGGAGCCCGAGCAGCCGCGGUGAAGCUGAAGCUUCGUGCAC
[1]
  binding signal: -1.23 z-score
[2]
  binding signal: -0.357 z-score
[3]
  binding signal: -0.994 z-score

B12: hsa-mir-3179-4_3179-1_3179-3_3179-2 (structured_RNA)
RNA: GGGACAGUAAUAGGCGUCCAACCAUCGCGGUGUACGAAGUUUCAGCUUCUGCUGUGCCUUACAGCAGUAGAAGCUGAAGCUUCGUGCAC
[1]
  binding signal: -1.24 z-score
[2]
  binding signal: -0.483 z-score
[3]
  binding signal: -0.635 z-score

B13: hsa-mir-16-1 (structured_RNA)
RNA: GGGAAGGCCAGCGUCUUGGACCCAAUAUGGUGUACGAAGUUUCAGCUUGGCGUUAAGAUUCUAAAAUUAUCUCCAGGCUGAAGCUUCGUGCAC
[1]
  binding signal: -1.24 z-score
[2]
  binding signal: -1.12 z-score
[3]
  binding signal: -0.503 z-score

B14: hsa-mir-6078 (structured_RNA)
RNA: GGGAAGUUCUCCGCCACUGUUUCCCAGAGGUGUACGAAGUUUCAGCGUGGACAGAGGCAAAACUCUAACUUCGCUGAAGCUUCGUGCAC
[1]
  binding signal: -1.24 z-score
[2]
  binding signal: -1.13 z-score
[3]
  binding signal: -0.116 z-score

B15: hsa-mir-6877 (structured_RNA)
RNA: GGGAAAUGCUGGAUAGUGCAUUGAACACGGUGUACGAAGUUUCAGCGCUGCUGGUGCUCAUCUCAGCGCUGAAGCUUCGUGCAC
[1]
  binding signal: -1.24 z-score
[2]
  binding signal: -0.157 z-score
[3]
  binding signal: 0.0147 z-score

B16: hsa-mir-1587 (structured_RNA)
RNA: GGGAACGACUCCGAAAGUUUGCAUGCCUGGUGUACGAAGUUUCAGCUGGGCAGUUCUUCUGCUGGGCUGAAGCUUCGUGCAC
[1]
  binding signal: -1.25 z-score
[2]
  binding signal: -1.2 z-score
[3]
  binding signal: -1.37 z-score

B17: hsa-mir-8080 (structured_RNA)
RNA: GGGACGAUCCUGUUCGCCUCUCAGUCUAGGUGUACGAAGUUUCAGCGCUGAGCCCUUUGAUAAGGGGGAGGUUGCUGAAGCUUCGUGCAC
[1]
  binding signal: -1.25 z-score
[2]
  binding signal: -2.61 z-score
[3]
  binding signal: -1 z-score

B18: hsa-mir-548p (structured_RNA)
RNA: GGGAAGUUCAUUGGACGCAGCGUUCUGGGGUGUACGAAGUUUCAGCGUCAUUACUUUCAAUAGCGCUGAAGCUUCGUGCAC
[1]
  binding signal: -1.25 z-score
[2]
  binding signal: 0.338 z-score
[3]
  binding signal: -0.588 z-score

B19: hsa-mir-2909 (structured_RNA)
RNA: GGGAACCGAGAUCACGUUUGCGUCUUACGGUGUACGAAGUUUCAGCUUGGUCUUUCCCCUGUGGUCCCAAGCUGAAGCUUCGUGCAC
[1]
  binding signal: -1.25 z-score
[2]
  binding signal: -0.0873 z-score
[3]
  binding signal: -0.952 z-score

B20: NEAT1_ParasoR_ID33 (structured_RNA)
RNA: GGGAGCGCAAUCGUUAGACCAAAAGCUCGGUGUACGAAGUUUCAGCUACAAGUUUUUGUGGCUGAAGCUUCGUGCAC
[1]
  binding signal: -1.26 z-score
[2]
  binding signal: -0.526 z-score
[3]
  binding signal: -1.8 z-score

B21: hsa-mir-4671 (structured_RNA)
RNA: GGGAAUAAGGUGUAGCCUAAGACAAACAGGUGUACGAAGUUUCAGCCUAAUCUCUUAGCACUGAAGAUUAGGCUGAAGCUUCGUGCAC
[1]
  binding signal: -1.26 z-score
[2]
  binding signal: 0.196 z-score
[3]
  binding signal: -0.487 z-score

B22: hsa-mir-4328 (structured_RNA)
RNA: GGGAAGAGGUCUGCGUAGAGCUGUUGGCGGUGUACGAAGUUUCAGCUUGAGAACCAGGCUGAAGCUUCGUGCAC
[1]
  binding signal: -1.26 z-score
[2]
  binding signal: 0.371 z-score
[3]
  binding signal: 0.013 z-score

B23: hsa-mir-6806 (structured_RNA)
RNA: GGGAAAGAGCACGACCGCCUCCUUGAAUGGUGUACGAAGUUUCAGCCCAGGUUCCAUGUGAUGCUGAAGCUGAAGCUUCGUGCAC
[1]
  binding signal: -1.26 z-score
[2]
  binding signal: 0.141 z-score
[3]
  binding signal: -0.151 z-score

B24: hsa-mir-6729 (structured_RNA)
RNA: GGGAAGGUCUAACACCGGUUCAAUAGCAGGUGUACGAAGUUUCAGCCUGAGCGGCUCCAUCCCCCGGCCUGCUCAUGCUGAAGCUUCGUGCAC
[1]
  binding signal: -1.27 z-score
[2]
  binding signal: -0.543 z-score
[3]
  binding signal: -0.688 z-score

B25: PARIS_ID15 (structured_RNA)
RNA: GGGAAUUCAGCGCCGGUUCCAUAGCUCGGGUGUACGAAGUUUCAGCCCAGAGGAGGCAGCAUCUGUAGGUGUCUUCACCUGCUCUGGGCUGAAGCUUCGUGCAC
[1]
  binding signal: -1.27 z-score
[2]
  binding signal: 0.169 z-score
[3]
  binding signal: -0.303 z-score

B26: hsa-mir-1973 (structured_RNA)
RNA: GGGAAUACCCGAUUAAGGGAAACCCCGUGGUGUACGAAGUUUCAGCUGGUAUCCUGACCGGCUGAAGCUUCGUGCAC
[1]
  binding signal: -1.27 z-score
[2]
  binding signal: -0.0118 z-score
[3]
  binding signal: -1.28 z-score
